{
  "sequences": {"note": "By UniProt entry, the sequences of proteins in these tests, tags left out.", "UniProt Q92847, whole entry": "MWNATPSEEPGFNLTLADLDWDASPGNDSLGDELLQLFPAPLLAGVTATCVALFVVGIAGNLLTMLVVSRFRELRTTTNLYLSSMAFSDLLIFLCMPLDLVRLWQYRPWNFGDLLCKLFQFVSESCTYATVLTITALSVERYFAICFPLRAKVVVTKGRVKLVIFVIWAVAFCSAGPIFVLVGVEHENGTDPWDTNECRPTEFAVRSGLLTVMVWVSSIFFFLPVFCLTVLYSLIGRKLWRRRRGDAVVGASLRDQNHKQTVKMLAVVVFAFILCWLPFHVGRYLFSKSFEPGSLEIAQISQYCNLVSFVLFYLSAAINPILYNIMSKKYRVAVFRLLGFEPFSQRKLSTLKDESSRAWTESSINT"},
  "source": "patent US8450268",
  "target": "human growth hormone secretagogue receptor (hGHS-R1a) (human) (UniProt Q92847)",
  "assay": "cell-based or functional assay",
  "data": [
    {"substance": "Ghrelin (Bachem, #H-4864) (from UniProt Q9UBU3 24-51) (peptide)", "values": [
      {"measurement": "EC80 (aequorin luminescence, CHO-K1 cells with human ghrelin receptor)", "value": 3.7, "unit": "nM"}
    ]}
  ]
}
